{"sequences": {"note": "By UniProt entry, the sequences of proteins in these tests, tags left out.", "UniProt P08238, whole entry, looked up": "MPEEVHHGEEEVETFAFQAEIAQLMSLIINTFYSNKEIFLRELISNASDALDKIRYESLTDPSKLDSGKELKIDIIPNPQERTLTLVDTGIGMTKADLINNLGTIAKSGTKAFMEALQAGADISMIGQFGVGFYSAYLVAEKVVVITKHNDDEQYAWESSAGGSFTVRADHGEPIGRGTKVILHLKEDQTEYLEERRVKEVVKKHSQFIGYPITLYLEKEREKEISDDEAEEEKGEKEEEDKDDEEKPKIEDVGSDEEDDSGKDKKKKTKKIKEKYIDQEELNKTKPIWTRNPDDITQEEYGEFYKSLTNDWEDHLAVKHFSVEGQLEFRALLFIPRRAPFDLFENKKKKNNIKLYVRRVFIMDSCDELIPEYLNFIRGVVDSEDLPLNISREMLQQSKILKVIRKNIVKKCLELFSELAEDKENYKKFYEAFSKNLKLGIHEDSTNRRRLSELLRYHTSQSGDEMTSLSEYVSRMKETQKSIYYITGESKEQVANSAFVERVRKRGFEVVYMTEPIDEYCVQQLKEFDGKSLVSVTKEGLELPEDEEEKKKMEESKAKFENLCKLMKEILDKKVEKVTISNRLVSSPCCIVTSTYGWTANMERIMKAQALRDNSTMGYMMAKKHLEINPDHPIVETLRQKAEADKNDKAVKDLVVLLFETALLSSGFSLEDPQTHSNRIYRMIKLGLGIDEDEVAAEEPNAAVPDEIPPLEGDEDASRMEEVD"}, "source": "ChEMBL document CHEMBL4376883", "about": "“Discovery and Optimization of Small Molecules Targeting the Protein-Protein Interaction of Heat Shock Protein 90 (Hsp90) and Cell Division Cycle 37 as Orally Active Inhibitors for the Treatment of Colorectal Cancer” (J Med Chem, 2020)", "key": {"[1]": {"molecular_target": "T1, Heat shock protein HSP90 (Homo sapiens, UniProt P07900+P08238)", "test": "Binding affinity to recombinant full-length biotinylated-HSP90 N-terminal domain (9 to 236 residues) (unknown origin) expressed in Escherichia coli BL21 (DE3) assessed as association rate constant by biolayer interferometry"}, "[2]": {"molecular_target": "T1, Heat shock protein HSP90", "test": "Binding affinity to recombinant full-length biotinylated-HSP90 N-terminal domain (9 to 236 residues) (unknown origin) expressed in Escherichia coli BL21 (DE3) assessed as dissociation rate constant by biolayer interferometry"}}, "data": [{"compound": "Cc1cc(C)c(S(=O)(=O)N(CC(=O)NO)c2ccc(Nc3ccnc(N4CCNCC4)n3)cc2)c(C)c1", "values": [{"measurement": "K", "setting": "[1]", "result": 6350, "unit": "M/s"}, {"measurement": "K", "setting": "[2]", "result": 0.02, "unit": "s⁻¹"}]}, {"compound": "COC(=O)CN(c1ccc(Nc2ccnc(N3CCNCC3)n2)cc1)S(=O)(=O)c1c(C)cc(C)cc1C", "values": [{"measurement": "K", "setting": "[1]", "result": 20300, "unit": "M/s"}, {"measurement": "K", "setting": "[2]", "result": 0.04, "unit": "s⁻¹"}]}, {"compound": "Cc1cc(C)c(S(=O)(=O)N(Cc2nnn[nH]2)c2ccc(Nc3ccnc(N4CCNCC4)n3)cc2)c(C)c1", "values": [{"measurement": "K", "setting": "[1]", "result": 7010, "unit": "M/s"}, {"measurement": "K", "setting": "[2]", "result": 0.04, "unit": "s⁻¹"}]}]}
